From patent US20240207249A1, “COMPOSITIONS AND METHODS FOR TREATING, PREVENTING OR REVERSING AGE-ASSOCIATED INFLAMMATION AND DISORDER” (Brown University, priority 2019, published 2024)

By UniProt entry, the sequences of proteins in these tests, tags left out. Where a name states a change or a piece, a line headed by the entry shows the natural chain unless it says otherwise.
UniProt O00370: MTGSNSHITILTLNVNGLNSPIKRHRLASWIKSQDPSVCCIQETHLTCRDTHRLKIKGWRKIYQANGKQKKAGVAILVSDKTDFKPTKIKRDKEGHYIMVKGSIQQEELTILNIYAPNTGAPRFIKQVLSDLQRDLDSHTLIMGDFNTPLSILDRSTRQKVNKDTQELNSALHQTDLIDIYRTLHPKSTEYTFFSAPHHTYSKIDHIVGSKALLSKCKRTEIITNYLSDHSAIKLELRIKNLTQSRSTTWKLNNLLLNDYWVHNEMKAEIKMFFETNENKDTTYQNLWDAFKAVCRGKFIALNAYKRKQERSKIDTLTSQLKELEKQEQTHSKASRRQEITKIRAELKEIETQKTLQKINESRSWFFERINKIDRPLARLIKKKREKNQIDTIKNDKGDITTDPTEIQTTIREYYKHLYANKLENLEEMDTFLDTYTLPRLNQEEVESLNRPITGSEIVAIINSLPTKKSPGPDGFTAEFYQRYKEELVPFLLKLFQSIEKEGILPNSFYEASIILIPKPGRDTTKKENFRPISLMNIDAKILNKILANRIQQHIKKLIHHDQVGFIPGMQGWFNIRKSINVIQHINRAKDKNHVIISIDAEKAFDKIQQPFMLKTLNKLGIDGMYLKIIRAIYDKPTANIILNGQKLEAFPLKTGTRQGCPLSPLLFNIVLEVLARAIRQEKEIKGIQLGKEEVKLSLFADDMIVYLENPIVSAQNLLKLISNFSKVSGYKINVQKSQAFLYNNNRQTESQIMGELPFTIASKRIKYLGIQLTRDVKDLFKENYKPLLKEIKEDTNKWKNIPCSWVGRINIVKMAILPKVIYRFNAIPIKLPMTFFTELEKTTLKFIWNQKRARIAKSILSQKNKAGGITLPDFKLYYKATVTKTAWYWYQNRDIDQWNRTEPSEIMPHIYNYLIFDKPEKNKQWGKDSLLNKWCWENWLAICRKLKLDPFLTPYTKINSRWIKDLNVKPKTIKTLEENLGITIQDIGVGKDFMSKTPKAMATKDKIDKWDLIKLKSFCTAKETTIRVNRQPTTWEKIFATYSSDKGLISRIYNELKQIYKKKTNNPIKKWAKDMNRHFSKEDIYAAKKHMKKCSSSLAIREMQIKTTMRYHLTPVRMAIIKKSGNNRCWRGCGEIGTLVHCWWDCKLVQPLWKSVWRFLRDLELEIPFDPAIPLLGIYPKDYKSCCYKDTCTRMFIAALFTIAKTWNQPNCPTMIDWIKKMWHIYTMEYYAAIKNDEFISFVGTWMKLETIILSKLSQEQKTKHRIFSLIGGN

Assays:
[1] = biological target: EN (L1 endonuclease domain), fluorescently labeled (Homo sapiens (Human), UniProt O00370); experiment: spectral shift binding affinity measurement; details: mean ± s.d., N.D. = binding not detected
L1 EN = L1 EN (Homo sapiens (Human), UniProt O00370); experiment: fluorescent oligonucleotide nicking assay; format: biochemical
[2] = biological target: human L1 EN domain (1-239) (Homo sapiens (Human), UniProt O00370); experiment: plasmid nicking L1 EN activity biochemical assay

**Q.** With COc1ccc2c(c1)C(=O)N(CCc1ccc(S(=O)(=O)NC(=O)NC3CCCCC3)cc1)C(=O)C2(C)C [AD12, Gliquidone, reference compound] as the compound, how does the Kd [1] read?
**A.** 741 ± 394 µM

**Q.** And the “in vitro activity against EN (in words)” value (L1 EN; in vitro assays with purified EN)?
**A.** relatively low efficacy in vitro

**Q.** What about the IC50 (L1 EN; mean ± s.d., 3 independent experiments, read-out: Biochemical assay: fluorescent oligonucleotide nicking assay IC50) of the same compound?
**A.** 691 ± 142 µM

**Q.** What about the “L1 EN inhibition in the biochemical assay (in words)” value [2] of the same compound?
**A.** inhibited L1 EN activity in the biochemical assay

**Q.** What about the “Biochemical assay: concentration at maximum inhibition” value ([2]; plasmid nicking assay) of the same compound?
**A.** 750 μM FIG. 2K

**Q.** What about the “Biochemical assay: maximum inhibition” value ([2]; plasmid nicking assay) of the same compound?
**A.** 100% inhibition at
